This experiment addresses Hematopoietic prostaglandin D synthase (Homo sapiens, UniProt O60760). Briefly: Inhibition of glutathione-S-transferase activity of prostaglandin D2 synthase.

Sequences of proteins named here, by UniProt entry; tags and fusion partners are left off. A change or cut given only in a name is not applied to a line headed by its entry.
UniProt O60760: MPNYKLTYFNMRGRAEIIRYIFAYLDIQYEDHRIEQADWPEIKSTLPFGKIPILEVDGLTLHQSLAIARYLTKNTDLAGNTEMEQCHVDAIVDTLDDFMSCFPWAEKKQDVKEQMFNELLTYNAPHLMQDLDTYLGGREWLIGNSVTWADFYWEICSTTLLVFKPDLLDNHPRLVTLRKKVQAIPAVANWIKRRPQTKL

Here are results for one molecule from ChEMBL document CHEMBL1142434, “Novel prostaglandin D synthase inhibitors generated by fragment-based drug design” (J Med Chem, 2008).

In general, IC50 refers to the midpoint of a concentration-inhibition curve.

With `O=C(O)c1cnn(-c2ccccc2)c1`, the IC50 is 890 µM.
